Biological target: Sigma non-opioid intracellular receptor 1 (Homo sapiens, UniProt Q99720)
Experiment: Inhibition of [3H](+)-SKF-10047 binding to sigma receptor

By UniProt entry, the sequences of proteins in these tests, tags left out.
UniProt Q99720, whole entry, looked up: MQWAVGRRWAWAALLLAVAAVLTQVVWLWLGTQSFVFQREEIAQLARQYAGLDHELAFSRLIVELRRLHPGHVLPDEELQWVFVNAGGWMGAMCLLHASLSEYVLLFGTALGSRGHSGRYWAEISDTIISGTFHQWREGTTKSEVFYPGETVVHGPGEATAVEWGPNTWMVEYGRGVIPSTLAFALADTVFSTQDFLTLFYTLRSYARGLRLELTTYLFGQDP

For CN(C(=O)C#Cc1ccccc1)C1CCN(Cc2ccccc2)CC1.O=C(O)/C=C/C(=O)O, the Ki was 4 nM.
O=C(/C=C/c1ccccc1)NC1CCN(Cc2ccccc2)CC1.O=C(O)/C=C/C(=O)O gave a Ki of 15 nM.
C(=C\c1ccccc1)/CN(C/C=C/c1ccccc1)C1CCN(Cc2ccccc2)CC1.O=C(O)/C=C/C(=O)O showed a Ki of 7 nM.
With O=C(C#Cc1ccccc1)NC1CCN(Cc2ccccc2)CC1.O=C(O)/C=C/C(=O)O the Ki was 8 nM.
For C(#Cc1ccccc1)CNC1CCN(Cc2ccccc2)CC1.O=C(O)/C=C/C(=O)O, the Ki was 2.5 nM.
CN(C(=O)/C=C/c1ccccc1)C1CCN(Cc2ccccc2)CC1.O=C(O)/C=C/C(=O)O was tested, and the Ki was 5 nM.
Work on C(=C\c1ccccc1)/CNC1CCN(Cc2ccccc2)CC1.O=C(O)/C=C/C(=O)O yielded a Ki of 16 nM.
CN(C/C=C/c1ccccc1)C1CCN(Cc2ccccc2)CC1.O=C(O)/C=C/C(=O)O showed a Ki of 2.6 nM.
CN(CC#Cc1ccccc1)C1CCN(Cc2ccccc2)CC1.O=C(O)/C=C/C(=O)O showed a Ki of 5 nM.

— ChEMBL document CHEMBL1127992, “Novel conformationally restricted aromatic piperidines as selective sigma receptor ligands” (Bioorg Med Chem Lett, 1994)
